Assay results: article PMC11865982, “Structure–Activity Relationships and Biological Insights into PSMA-617 and Its Derivatives with Modified Lipophilic Linker Regions” (ACS Omega, 2025)

System: PC3-PIP and PC3-flu tumor-bearing BALB/c nu/nu mice
Conditions: for biodistribution blood / biodistribution bone / biodistribution brain / biodistribution heart / biodistribution intestine / biodistribution kidney / biodistribution liver / biodistribution lung / biodistribution muscle / biodistribution spleen / biodistribution tail / biodistribution tumor PC3-PIP / biodistribution tumor PC3-flu: i.v., n = 3; for PC3-PIP-to-PC3-flu ratio / PC3-PIP-to-blood ratio / PC3-PIP-to-kidney ratio / PC3-PIP-to-muscle ratio / PC3-PIP-to-spleen ratio: averages (n = 3); for PC3 flu tumor retention: at all time-points (1, 2, 24 h p.i.); for tumor-to-kidney ratio: time not stated, before the 24 h p.i. value

O=C([O-])CN1CCN(CC(=O)[O-])CCN(CC(=O)NCc2ccc(C(=O)N[C@@H](C/C=C/c3ccccc3)C(=O)NCCCC[C@H](NC(=O)N[C@@H](CCC(=O)O)C(=O)O)C(=O)O)cc2)CCN(CC(=O)[O-])CC1.[177Lu+3] [[^177Lu]Lu-P18]
biodistribution blood (1 h p.i.): 0.19 ± 0.06 % IA/g | biodistribution bone (1 h p.i.): 0.28 ± 0.01 % IA/g | biodistribution brain (1 h p.i.): 0.03 ± 0.01 % IA/g | biodistribution heart (1 h p.i.): 0.36 ± 0.08 % IA/g | biodistribution intestine (1 h p.i.): 0.20 ± 0.08 % IA/g | biodistribution kidney (1 h p.i.): ~150 % IA/g and 147 ± 5 % IA/g | biodistribution liver (1 h p.i.): 0.25 ± 0.01 % IA/g | biodistribution lung (1 h p.i.): 1.3 ± 0.2 % IA/g | biodistribution muscle (1 h p.i.): 0.19 ± 0.05 % IA/g | biodistribution spleen (1 h p.i.): ~14 % IA/g and 14.6 ± 3.5 % IA/g | biodistribution tail (1 h p.i.): 0.79 ± 0.08 % IA/g | biodistribution tumor PC3-PIP (1 h p.i.): 19.8 ± 2.3 % IA/g | biodistribution tumor PC3-flu (1 h p.i.): 0.62 ± 0.46 % IA/g | PC3-PIP-to-PC3-flu ratio (1 h p.i.): 31.9 | PC3-PIP-to-blood ratio (1 h p.i.): 106 | PC3-PIP-to-kidney ratio (1 h p.i.): 0.14 | PC3-PIP-to-muscle ratio (1 h p.i.): 103 | PC3-PIP-to-spleen ratio (1 h p.i.): 1.4 | biodistribution blood (2 h p.i.): 0.06 ± 0.01 % IA/g | biodistribution bone (2 h p.i.): 0.63 ± 0.78 % IA/g | biodistribution brain (2 h p.i.): 0.02 ± 0.01 % IA/g | biodistribution heart (2 h p.i.): 0.21 ± 0.02 % IA/g | biodistribution intestine (2 h p.i.): 0.10 ± 0.01 % IA/g | biodistribution kidney (2 h p.i.): 135 ± 11 % IA/g | biodistribution liver (2 h p.i.): 0.16 ± 0.02 % IA/g | biodistribution lung (2 h p.i.): 0.68 ± 0.12 % IA/g | biodistribution muscle (2 h p.i.): 0.14 ± 0.02 % IA/g | biodistribution spleen (2 h p.i.): 8.5 ± 1.0 % IA/g | biodistribution tail (2 h p.i.): 0.77 ± 0.32 % IA/g | biodistribution tumor PC3-PIP (2 h p.i.): 17.5 ± 2.3 % IA/g | biodistribution tumor PC3-flu (2 h p.i.): 0.49 ± 0.51 % IA/g | PC3-PIP-to-PC3-flu ratio (2 h p.i.): 36.1 | PC3-PIP-to-blood ratio (2 h p.i.): 276 | PC3-PIP-to-kidney ratio (2 h p.i.): 0.13 | PC3-PIP-to-muscle ratio (2 h p.i.): 124 | PC3-PIP-to-spleen ratio (2 h p.i.): 2.1 | biodistribution blood (24 h p.i.): 0.01 ± 0.01 % IA/g | biodistribution bone (24 h p.i.): 0.10 ± 0.08 % IA/g | biodistribution brain (24 h p.i.): 0.01 ± 0.01 % IA/g | biodistribution heart (24 h p.i.): 0.03 ± 0.01 % IA/g | biodistribution intestine (24 h p.i.): 0.02 ± 0.01 % IA/g | biodistribution kidney (24 h p.i.): ~25 % IA/g and 25.4 ± 10.3 % IA/g | biodistribution liver (24 h p.i.): 0.10 ± 0.02 % IA/g | biodistribution lung (24 h p.i.): 0.13 ± 0.01 % IA/g | biodistribution muscle (24 h p.i.): 0.02 ± 0.01 % IA/g | biodistribution spleen (24 h p.i.): 0.89 ± 0.39 % IA/g | biodistribution tail (24 h p.i.): 0.08 ± 0.01 % IA/g | biodistribution tumor PC3-PIP (24 h p.i.): 17.7 ± 3.2 % IA/g | biodistribution tumor PC3-flu (24 h p.i.): 1.6 ± 0.3 % IA/g | PC3-PIP-to-PC3-flu ratio (24 h p.i.): 10.8 | PC3-PIP-to-blood ratio (24 h p.i.): 2351 | PC3-PIP-to-kidney ratio (24 h p.i.): below 1 | PC3-PIP-to-muscle ratio (24 h p.i.): 739 | PC3-PIP-to-spleen ratio (24 h p.i.): 19.9 | PC3-PIP-to-kidney ratio (24 h p.i., listed as [177Lu]Lu-P18): 0.7 | PC3 flu tumor retention: under 1.7 % IA/g | tumor-to-kidney ratio: below 1

O=C([O-])CN1CCN(CC(=O)[O-])CCN(CC(=O)NC[C@H]2CC[C@H](C(=O)N[C@@H](C/C=C/c3ccccc3)C(=O)NCCCC[C@H](NC(=O)N[C@@H](CCC(=O)O)C(=O)O)C(=O)O)CC2)CCN(CC(=O)[O-])CC1.[177Lu+3] [[^177Lu]Lu-P17]
biodistribution blood (1 h p.i.): 0.18 ± 0.10 % IA/g | biodistribution bone (1 h p.i.): 0.16 ± 0.03 % IA/g | biodistribution brain (1 h p.i.): 0.02 ± 0.01 % IA/g | biodistribution heart (1 h p.i.): 0.18 ± 0.02 % IA/g | biodistribution intestine (1 h p.i.): 0.09 ± 0.01 % IA/g | biodistribution kidney (1 h p.i.): ~110 % IA/g and 111 ± 33 % IA/g | biodistribution liver (1 h p.i.): 0.15 ± 0.03 % IA/g | biodistribution lung (1 h p.i.): 0.51 ± 0.06 % IA/g | biodistribution muscle (1 h p.i.): 0.10 ± 0.03 % IA/g | biodistribution spleen (1 h p.i.): 2–3 % IA/g and 2.3 ± 0.4 % IA/g | biodistribution tail (1 h p.i.): 0.66 ± 0.09 % IA/g | biodistribution tumor PC3-PIP (1 h p.i.): 14.1 ± 0.6 % IA/g | biodistribution tumor PC3-flu (1 h p.i.): 0.50 ± 0.38 % IA/g | PC3-PIP-to-PC3-flu ratio (1 h p.i.): 28.1 | PC3-PIP-to-blood ratio (1 h p.i.): 78.3 | PC3-PIP-to-kidney ratio (1 h p.i.): 0.13 | PC3-PIP-to-muscle ratio (1 h p.i.): 139 | PC3-PIP-to-spleen ratio (1 h p.i.): 6.3 | biodistribution blood (2 h p.i.): 0.09 ± 0.01 % IA/g | biodistribution bone (2 h p.i.): 0.18 ± 0.01 % IA/g | biodistribution brain (2 h p.i.): 0.02 ± 0.01 % IA/g | biodistribution heart (2 h p.i.): 0.07 ± 0.02 % IA/g | biodistribution intestine (2 h p.i.): 0.06 ± 0.02 % IA/g | biodistribution kidney (2 h p.i.): 50.3 ± 10.5 % IA/g | biodistribution liver (2 h p.i.): 0.12 ± 0.03 % IA/g | biodistribution lung (2 h p.i.): 0.53 ± 0.03 % IA/g | biodistribution muscle (2 h p.i.): 0.05 ± 0.10 % IA/g | biodistribution spleen (2 h p.i.): 0.81 ± 0.12 % IA/g | biodistribution tail (2 h p.i.): 0.35 ± 0.05 % IA/g | biodistribution tumor PC3-PIP (2 h p.i.): 14.1 ± 4.5 % IA/g | biodistribution tumor PC3-flu (2 h p.i.): 0.17 ± 0.16 % IA/g | PC3-PIP-to-PC3-flu ratio (2 h p.i.): 81.8 | PC3-PIP-to-blood ratio (2 h p.i.): 161 | PC3-PIP-to-kidney ratio (2 h p.i.): 0.28 | PC3-PIP-to-muscle ratio (2 h p.i.): 268 | PC3-PIP-to-spleen ratio (2 h p.i.): 17.5 | biodistribution blood (24 h p.i.): 0.02 ± 0.02 % IA/g | biodistribution bone (24 h p.i.): 0.79 ± 0.26 % IA/g | biodistribution brain (24 h p.i.): 0.01 ± 0.01 % IA/g | biodistribution heart (24 h p.i.): 0.03 ± 0.01 % IA/g | biodistribution intestine (24 h p.i.): 0.05 ± 0.03 % IA/g | biodistribution kidney (24 h p.i.): ~1 % IA/g and 1.1 ± 0.1 % IA/g | biodistribution liver (24 h p.i.): 0.25 ± 0.01 % IA/g | biodistribution lung (24 h p.i.): 0.09 ± 0.06 % IA/g | biodistribution muscle (24 h p.i.): 0.01 ± 0.01 % IA/g | biodistribution spleen (24 h p.i.): 0.12 ± 0.01 % IA/g | biodistribution tail (24 h p.i.): 0.28 ± 0.03 % IA/g | biodistribution tumor PC3-PIP (24 h p.i.): 10.5 ± 0.3 % IA/g | biodistribution tumor PC3-flu (24 h p.i.): 0.16 ± 0.02 % IA/g | PC3-PIP-to-PC3-flu ratio (24 h p.i.): 67.5 | PC3-PIP-to-blood ratio (24 h p.i.): 619 | PC3-PIP-to-kidney ratio (24 h p.i.): 9.8 | PC3-PIP-to-muscle ratio (24 h p.i.): 1620 | PC3-PIP-to-spleen ratio (24 h p.i.): 87.9 | PC3 flu tumor retention: under 1.7 % IA/g | tumor-to-kidney ratio: below 1

O=C([O-])CN1CCN(CC(=O)[O-])CCN(CC(=O)NC[C@H]2CC[C@H](C(=O)N[C@@H](Cc3ccc4ccccc4c3)C(=O)NCCCC[C@H](NC(=O)N[C@@H](CCC(=O)O)C(=O)O)C(=O)O)CC2)CCN(CC(=O)[O-])CC1.[177Lu+3] [[^177Lu]Lu-PSMA-617, reference compound]
biodistribution blood (1 h p.i.): 0.19 ± 0.01 % IA/g | biodistribution brain (1 h p.i.): 0.03 ± 0.02 % IA/g | biodistribution intestine (1 h p.i.): 0.40 ± 0.34 % IA/g | biodistribution kidney (1 h p.i.): ~110 % IA/g and 109±52 % IA/g | biodistribution lung (1 h p.i.): 0.43 ± 0.19 % IA/g | biodistribution spleen (1 h p.i.): 2–3 % IA/g and 2.8 ± 2.2 % IA/g | biodistribution tumor PC3-PIP (1 h p.i.): 24.5 ± 13.0 % IA/g | biodistribution tumor PC3-flu (1 h p.i.): 0.17 ± 0.13 % IA/g | PC3-PIP-to-PC3-flu ratio (1 h p.i.): 144 | PC3-PIP-to-blood ratio (1 h p.i.): 130 | PC3-PIP-to-kidney ratio (1 h p.i.): 0.22 | PC3-PIP-to-muscle ratio (1 h p.i.): 168 | PC3-PIP-to-spleen ratio (1 h p.i.): 8.9 | biodistribution blood (2 h p.i.): 0.03 ± 0.02 % IA/g | biodistribution bone (2 h p.i.): 1.6 ± 1.5 % IA/g | biodistribution brain (2 h p.i.): 0.01 ± 0.01 % IA/g | biodistribution heart (2 h p.i.): 0.02 ± 0.01 % IA/g | biodistribution intestine (2 h p.i.): 0.04 ± 0.01 % IA/g | biodistribution kidney (2 h p.i.): 12.9±10.2 % IA/g | biodistribution liver (2 h p.i.): 0.05 ± 0.02 % IA/g | biodistribution lung (2 h p.i.): 0.08 ± 0.03 % IA/g | biodistribution muscle (2 h p.i.): 0.02 ± 0.01 % IA/g | biodistribution spleen (2 h p.i.): 0.38 ± 0.17 % IA/g | biodistribution tail (2 h p.i.): 0.05 ± 0.10 % IA/g | biodistribution tumor PC3-PIP (2 h p.i.): 20.4 ± 5.1 % IA/g | biodistribution tumor PC3-flu (2 h p.i.): 0.05 ± 0.01 % IA/g | PC3-PIP-to-PC3-flu ratio (2 h p.i.): 447 | PC3-PIP-to-blood ratio (2 h p.i.): 620 | PC3-PIP-to-kidney ratio (2 h p.i.): 1.6 | PC3-PIP-to-muscle ratio (2 h p.i.): 971 | PC3-PIP-to-spleen ratio (2 h p.i.): 54.2 | biodistribution blood (24 h p.i.): 0.02 ± 0.03 % IA/g | biodistribution bone (24 h p.i.): 0.04 ± 0.02 % IA/g | biodistribution brain (24 h p.i.): 0.01 ± 0.01 % IA/g | biodistribution heart (24 h p.i.): 0.01 ± 0.01 % IA/g | biodistribution intestine (24 h p.i.): 0.01 ± 0.01 % IA/g | biodistribution kidney (24 h p.i.): ~1 % IA/g and 0.64 ± 0.18 % IA/g | biodistribution muscle (24 h p.i.): 0.01 ± 0.01 % IA/g | biodistribution tail (24 h p.i.): 0.03 ± 0.01 % IA/g | biodistribution tumor PC3-PIP (24 h p.i.): 22.3 ± 3.5 % IA/g | biodistribution tumor PC3-flu (24 h p.i.): 0.51 ± 0.18 % IA/g | PC3-PIP-to-PC3-flu ratio (24 h p.i.): 43.6 | PC3-PIP-to-blood ratio (24 h p.i.): 1306 | PC3-PIP-to-kidney ratio (24 h p.i.): 35.1 | PC3-PIP-to-muscle ratio (24 h p.i.): 5846 | PC3-PIP-to-spleen ratio (24 h p.i.): 201

Values joined by “and” are separate entries in the source; they are usually repeats but may differ in a detail not shown here. Equal values may be shown once. Read-outs that look alike come from different tables or passages of the source.
